Assay results from US10501421B1, “Substituted benzimidazoles as modulators of Ras signaling” (VANDERBILT UNIVERSITY, priority 2017, dated 2019).
Where a name gives a salt, the structure may show the parent alone. Read-outs that look alike come from different tables or passages of the source.

By UniProt entry, the sequences of proteins in these tests, tags left out. Residues count along the entry.
UniProt Q07889, 564-1049 limits assumed: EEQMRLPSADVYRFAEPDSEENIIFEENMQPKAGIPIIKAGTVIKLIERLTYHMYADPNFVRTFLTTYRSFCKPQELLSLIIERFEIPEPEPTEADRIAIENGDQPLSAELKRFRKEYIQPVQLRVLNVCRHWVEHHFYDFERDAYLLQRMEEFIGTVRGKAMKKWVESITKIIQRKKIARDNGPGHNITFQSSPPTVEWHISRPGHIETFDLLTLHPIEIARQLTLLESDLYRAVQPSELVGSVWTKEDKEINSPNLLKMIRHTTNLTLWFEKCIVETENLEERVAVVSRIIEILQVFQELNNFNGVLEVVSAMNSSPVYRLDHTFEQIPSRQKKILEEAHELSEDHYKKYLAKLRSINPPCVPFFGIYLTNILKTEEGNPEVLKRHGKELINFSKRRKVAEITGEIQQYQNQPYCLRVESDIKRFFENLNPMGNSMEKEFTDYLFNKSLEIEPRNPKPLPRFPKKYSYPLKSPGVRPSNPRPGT
UniProt P01112, 1-166 partner limits assumed: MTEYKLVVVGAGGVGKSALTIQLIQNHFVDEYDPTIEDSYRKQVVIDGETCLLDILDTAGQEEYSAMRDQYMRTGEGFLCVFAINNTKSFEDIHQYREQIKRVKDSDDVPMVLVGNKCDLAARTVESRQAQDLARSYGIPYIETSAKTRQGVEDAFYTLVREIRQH

Assays:
Son of Sevenless (SOS) = Son of Sevenless (SOS) (Homo sapiens, UniProt Q07889); experiment: Binding to SOS, fluorescence polarization anisotropy (FPA) probe displacement
[1] = molecular target: Ras GEF SOS (Son of Sevenless) (Homo sapiens, UniProt Q07889); experiment: SOS-mediated nucleotide exchange on Ras (BODIPY-GDP fluorescence); type: biochemical; conditions: read-out: Nucleotide exchange activity (nucleotide exchange EC50), SOS-mediated exchange of BODIPY-GDP for GTP on Ras

| SMILES | Ki (Son of Sevenless (SOS); read-out: Binding affinity to SOS, displacement of FITC-conjugated probe (Example 285), affinity calculated from IC50, tested form: TFA) [µM] | EC50 ([1]; tested form: TFA) [µM] | Ki (Son of Sevenless (SOS); read-out: Binding affinity to SOS, displacement of FITC-conjugated probe (Example 285), affinity calculated from IC50, tested form: trifluoroacetate) [µM] | EC50 ([1]; tested form: trifluoroacetate) [µM] |
| --- | --- | --- | --- | --- |
| Fc1ccc(Cn2c(N3CCNCC3)nc3ccc(Cl)cc32)cc1Cl [Example 73, 6-chloro-1-(3-chloro-4-fluorobenzyl)-2-(piperazin-1-yl)-1H-benzo[d]imidazole trifluoroacetate] | < 0.5 | < 1 | – | – |
| Cc1cc2nc(N3CCNCC3)n(Cc3ccc(F)c(Cl)c3)c2cc1Cl | – | – | 1 to 5 | 1 to 5 |
